Data published in ChEMBL document CHEMBL4020721 (Eur J Med Chem, 2017).

Columns and labels:
[1] = Intrinsic clearance in mouse liver microsomes assessed per mg protein at 1 uM preincubated for 5 mins followed by NADPH addition measured after 5 to 30 mins by LC-MS/MS analysis; conditions: read-out: CLH
[2] = Drug metabolism in monkey cytosol assessed as AO-mediated metabolite formation by measuring parent compound remaining at 100 uM after 30 mins in absence of AO inhibitor menadione by LC-MS/MS analysis; type: ADME, Macaca mulatta; conditions: rhesus monkey, 0.5 h
[3] = Drug recovery in rat liver microsomes at 1 uM measured after 30 mins by LC-MS/MS analysis; type: ADME, microsome; conditions: read-out: Drug recovery
How it was run: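 Liver microsomes (0.5 mg/ml) were incubated with 1 µM compound at 37°C in 100 mM phosphate buffer pH 7.4 without NADPH for 30 min. Reactions were quenched with acetonitrile/tinidazole internal standard and analysed by LC-MS/MS. Recovery (%) was taken from the compound/internal standard peak area ratio.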

[4] = Drug recovery in mouse liver microsomes at 1 uM measured after 30 mins by LC-MS/MS analysis
[5] = Drug metabolism in monkey cytosol assessed as AO-mediated metabolite formation by measuring parent compound remaining at 100 uM after 30 mins in presence of 100 uM AO inhibitor menadione by LC-MS/MS analysis; type: ADME, Macaca mulatta; conditions: rhesus monkey, 0.5 h

## CC(c1cc2cc(-c3cnn(C)c3)cnc2cc1F)n1nnc2ncc(-c3cnn(CCO)c3)nc21 (stereo in doubt; 14)
[1]
  microsomal CLint at 1 µM: 50 µL/min/mg
[2]
  Stability: 99.4%
[3]
  remaining at 0.5 h, 1 µM: 101%
[4]
  remaining at 0.5 h, 1 µM: 107%
[5]
  Stability: 99.6%
